What all share (assay): modified G assay titration, peptide vs constant GST-PDZ domain fusion
One assay concerns the target T1, GORASP1 d1 (Homo sapiens, UniProt Q9BQQ3).
T1 construct: made in house; host or cells: E. coli (DH5α, BL21 or JM109)
To be noted: binding of peptide to GORASP1 d1. Here is the method: (§1) A Nunc Maxisorp 96 well Immunoplate (Nunc cat#62409-002) was coated with 100 μl of 5 μg/ml goat anti-GST polyclonal antibody (Amersham Pharmacia cat#27-457-01) and incubated overnight at 4° C. The plate was blocked by addition of 200 μl Assay Buffer (2% bovine serum albumin in PBS, pH 7.4) for 1 to 2 hours at room temperature, then washed three times in Assay Buffer.
(§2) 50 μl per well of GST-PDZ fusion proteins (5 μg/ml in Assay Buffer), or, as a negative control, GST polypeptide alone, was added to the plate, and incubated for 1 to 2 hours at 4° C.
(§3) Biotinylated peptides were prepared in Assay Buffer, in half the volume required at 40 μM. HRP-Streptavidin (Zymed cat#43-4323) was diluted 1:1000 in another half volume of Assay Buffer, then mixed with the peptides. The peptide-HRP mixtures were incubated for 20 minutes at room temperature. The plate was washed three times with cold PBS, the peptide-HRP mixtures added at 50 μl per well, and the plate was incubated at room temperature for precisely 30 minutes after the addition of the last peptide.
(§4) The plate was then washed five times with room temperature PBS, and developed by addition of 100 μl/well of HRP substrate solution (3,3′,5,5′, tetramethylbensidine (TMB) (Dako cat#S1600)) for a maximum of 30 minutes in the dark at room temperature. The reaction of HRP and its substrate was terminated by addition of 100 μl of 0.18 M H2SO4 (Sigma cat#S1526), and the absorbance of each well of the plate was read at 450 nm.
(§5) Using the modified G assay described in Example 1, several GST-PDZ domain proteins were tested to determine their relative binding strength to the C-terminal sequences of hCLCA1 and mCLCA3. The Tat-hCLCA1 and Tat-CLCA3 peptides described in Example 1 were titrated against a constant amount of GST-PDZ domain fusion protein and the results are shown below.
(§6) Data was fitted to the equation:
(§7) y=100.0/(1+10^((log(m1)-log(m0))*m2)), where m1=EC50, m2=Hill coefficient, and m0=peptide concentration to calculate the EC50 for the binding of the peptides to the PDZ domains.

Protein sequences, listed by entry. Tags and fused reporters are not part of them. Residues count along the entry.
UniProt Q9BQQ3, 1-110: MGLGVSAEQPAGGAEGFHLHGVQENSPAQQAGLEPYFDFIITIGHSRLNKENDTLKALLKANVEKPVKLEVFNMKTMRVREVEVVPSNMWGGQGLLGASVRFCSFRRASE

For the next assay, the target named is T2, ZO-3 d1 (Homo sapiens, UniProt O95049).
T2 construct: GST-PDZ fusions were produced that each contain an entire PDZ domain (or multiple PDZ domains); made in house; host or cells: E. coli (DH5α, BL21 or JM109)
T2 sequence (O95049 11-93 limits assumed): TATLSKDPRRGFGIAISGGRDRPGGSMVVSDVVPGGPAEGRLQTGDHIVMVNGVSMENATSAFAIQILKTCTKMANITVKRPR
To be noted: binding of peptide to ZO-3 d1. The method, then:
as §1, §2, §3, §4, §5, §6, §7

Another assay addresses T3, KIAA1284 (Homo sapiens, UniProt Q9ULD6).
T3 construct: made in house; host or cells: E. coli (DH5α, BL21 or JM109)
T3 sequence (Q9ULD6 with tags, fused parts or gaps): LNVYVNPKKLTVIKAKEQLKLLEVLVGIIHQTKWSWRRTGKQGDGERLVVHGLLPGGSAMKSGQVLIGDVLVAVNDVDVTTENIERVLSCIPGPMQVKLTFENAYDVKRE
Particulars: binding of peptide to KIAA1284. Here is the method: as §1, §2, §3, §4, §5, §6, §7

pEC50: −log10 of the molar value.

As usually defined, the pEC50 is the EC50 on a negative log10 scale, so that one unit is a factor of ten. A lower pEC50 goes with a high EC50. With `CSCC[C@H](NC(=O)[C@H](CCC(=O)O)NC(=O)[C@H](CCCNC(=N)N)NC(=O)[C@H](CCCNC(=N)N)NC(=O)[C@H](CCCNC(=N)N)NC(=O)[C@H](CCC(N)=O)NC(=O)[C@H](CCCNC(=N)N)NC(=O)[C@H](CCCNC(=N)N)NC(=O)[C@H](CCCCN)NC(=O)[C@H](CCCCN)NC(=O)[C@H](CCCNC(=N)N)NC(=O)CNC(=O)[C@H](Cc1ccc(O)cc1)NC(=O)CCCC[C@@H]1SC[C@@H]2NC(=O)N[C@@H]21)C(=O)N[C@@H](CCC(N)=O)C(=O)N[C@H](C(=O)N[C@H](C(=O)N[C@@H](CC(C)C)C(=O)NCC(=O)N[C@@H](CC(C)C)C(=O)N[C@@H](Cc1c[nH]cn1)C(=O)O)[C@@H](C)O)C(C)C` [Tat-CLCA3], the negative logarithm of the EC50 (pEC50) on GORASP1 d1 was 6.18; at ZO-3 d1, 5.39; at KIAA1284, 6.27.
